Columns and labels:
α1aAR [1] = target: T1, α1aAR (Homo sapiens, UniProt P35348); test: BMY7378 competition binding vs [125I]HEAT in human detrusor membranes, low affinity site; conditions: two-site fit, n=13, read-out: pKi α1aAR (low pKi) (converted)
T1 construct: from tissue; host or cells: human bladder detrusor smooth muscle membranes
T1 sequence (P35348 1-466): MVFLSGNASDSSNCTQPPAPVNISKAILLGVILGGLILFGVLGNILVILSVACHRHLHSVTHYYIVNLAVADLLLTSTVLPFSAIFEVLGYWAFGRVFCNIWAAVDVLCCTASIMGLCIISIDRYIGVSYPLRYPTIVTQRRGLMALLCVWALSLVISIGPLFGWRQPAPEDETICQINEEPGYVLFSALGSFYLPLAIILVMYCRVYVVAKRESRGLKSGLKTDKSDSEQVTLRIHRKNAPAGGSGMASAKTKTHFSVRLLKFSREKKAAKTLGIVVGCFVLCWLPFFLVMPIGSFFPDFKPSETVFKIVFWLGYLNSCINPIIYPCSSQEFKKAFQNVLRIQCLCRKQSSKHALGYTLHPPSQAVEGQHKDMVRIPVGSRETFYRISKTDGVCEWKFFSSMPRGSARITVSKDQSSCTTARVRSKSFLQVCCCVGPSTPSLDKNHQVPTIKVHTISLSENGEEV
Experimental: Human detrusor and rat bladder membrane preparation. Human detrusor and rat whole bladder was minced over dry ice, and suspended in cold lysis buffer (5 mM Tris HCl and 5 mM EDTA, pH 7.4) with protease inhibitors benzamidine (10 mg/ml), leupeptin (5 mg/ml), and soybean trypsin inhibitor (10 mg/ml) (Sigma Chemical Company; St. Louis, Mo.). A lysate was prepared with a Polytron PT 3000 (Brinkmann; Westbury, N.Y.) at 10,000 rpm for 10 seconds. After pelleting at 40,000×g for 15 minutes (Sorvall SM24 rotor), membranes were suspended in cold resuspension buffer (150 mM NaCl, 50 mM Tris-HCl, 5 mM EDTA, pH 7.4) with protease inhibitors, and kept on ice for immediate use (or stored at −70° C. for later use). Protein content was determined using the bicinchoninic assay (BCA) with bovine serum albumin (BSA) standards (Pierce; Rockford, Ill.).
(§1) Reaction conditions were as described above. Curves were fit with […] regression analysis using InPlot software (GraphPad).

α1aAR [2] = target: α1aAR (Homo sapiens, UniProt P35348); test: biochemical
Text: as §1

Q: Which results are given for `COc1ccccc1N1CCN(CCN2C(=O)CC3(CCCC3)CC2=O)CC1` [BMY7378]?
A: Ki (α1aAR [1]): 12.6 µM; Ki (α1aAR [2]): 15.8 µM

From patent US7858312B2, “Method of treating bladder and lower urinary tract syndromes” (Duke University, priority 1998, dated 2010)
